Measured values as given in PubChem BioAssay AID504894 (National Center for Advancing Translational Sciences (NCATS), 2011).
The entries are a selection whose mix differs from that of the whole data set. Some salts or complexes appear as unconnected parts, following the source record. Active and inactive are the calls of the source. The call rests on the fitted dose curve; in most records, active means well fitted activation curve with a large enough effect; inconclusive means small, poorly fitted or top-dose-only effect, or another doubt; inactive means no such curve, though single readings can be large or run the other way.

Assay: Activators of T cell receptors: qHTS campaign; further: % of control where 0% means no effect
Conditions: primary human leukocytes, anti-CD3, IL-2 HTRF, 48 h; at 9.22 µM unless noted
From the text: Normally activation of naive T cells requires two signals. 1. A signal through the T cell receptor (TCR) which provides antigen specificity to the response. 2. Signals through co-stimulatory molecules, which are necessary for proliferation, survival and cytokine production. In the absence of co-stimulatory signals T cells are not effectively activated, and may even be rendered anergic or unresponsive to subsequent signaling. This lack of costimulation has been shown in multiple model systems to be a major factor in the limited strength and effectiveness of anti-tumor T cell responses. The goal of this project is to identify small molecule compounds that will stimulate T cell activation in the presence of TCR signaling but in the absence of co-stimulatory signals, thereby allowing activation of naive T cells in the absence of co-stimulation. Identification of such compounds would have clear experimental and clinical applications in instances where desirable antigen-specific immune responses are not generated due to a lack of co-stimulation, for example in the generation of anti-tumor responses. In collaboration between the National Cancer Institute and NIH Chemical Genomics Center, a high-throughput amenable screen was developed to discover small molecules that co-stimulate and activate human T cell receptors. The screen will be carried out using a novel homogeneous time resolved fluorescence energy transfer (HTRF) assay to measure production of the cytokine IL-2 by activated T cells and will be tested against the NIH Molecular Libraries Small Molecule Repository (MLSMR). NIH Chemical Genomics Center [NCGC] NIH Molecular Libraries Probe Centers Network [MLPCN] MLPCN Grant: MH090820-01 Assay Submitter (PI): Richard Hodes, National Cancer Institute, NIH
Primary human leukocytes are incubated with a-CD3 beads and compounds for 48 hr. The amount of secreted IL-2 is then assayed with a HTRF IL-2 kit. The presence of IL-2 cytokine captures the detection reagents and brings the a-IL-2-K and a-IL-2-d2 into close proximity. Upon excitation with 320nm light, the europium cryptate is capable of transferring energy to acceptor molecules within close proximity, resulting in acceptor molecule emission at 665nm.
For `O=C(NCC1(N2CCCCC2)CCCCC1)c1cccc([N+](=O)[O-])c1`, the activation of IL-2 secretion was inactive: -2.38%. In the case of `N#CC1(Nc2ccccc2)CCN(CCc2ccccc2)CC1`, the activation of IL-2 secretion is reported as inactive: 6.65%. For `CCN1CCC(Nc2ccc(Cl)cc2)CC1`, the activation of IL-2 secretion was inactive: 5.54%. In the case of `COc1ccc2c(c1O)-c1c(O)c(OC)cc3c1[C@H](C2)[N+](C)(C)CC3.O=[N+]([O-])c1cc([N+](=O)[O-])c([O-])c([N+](=O)[O-])c1[O-]`, the activation of IL-2 secretion is reported as inactive: 1.52%. In the case of `O=C(NCC1(N2CCCCC2)CCCCC1)c1cncc(Br)c1`, the activation of IL-2 secretion is reported as inactive: 3.79%. With `CN1CCC(Nc2cccc(F)c2)CC1` the activation of IL-2 secretion was inactive: 0.595%. In the case of `O=C(OC1CN2CCC1CC2)c1ccc([N+](=O)[O-])cc1` (stereo not drawn), the activation of IL-2 secretion is reported as inactive: 8.06%. With `CCCOc1ccc(C(=O)NCC2(N(C)C)CCCCC2)cc1OC` the activation of IL-2 secretion was inactive: 5.57%. In the case of `CN(C)c1cccc(C(=O)NCC2(N3CCCCC3)CCCCC2)c1`, the activation of IL-2 secretion is reported as inactive: -0.193%. In the case of `O=[N+]([O-])c1cc([N+](=O)[O-])c(OC2CCCCC2O)c([N+](=O)[O-])c1` (stereo not drawn), the activation of IL-2 secretion is reported as inactive: -1.25%. For `COc1ccc(CN(CCCl)CCCl)cc1Cl`, the activation of IL-2 secretion was inactive: -1.2%. In the case of `CC(C)c1ccc(NC2CCN(C(=O)OC(C)(C)C)CC2)cc1`, the activation of IL-2 secretion is reported as inactive: 1.65%. With `COc1cc(OC)c(C(=O)NCC2(N(C)C)CCCCC2)cc1OC` the activation of IL-2 secretion was inactive: -2.85%. In the case of `O=C(NCC1(N2CCOCC2)CCCCC1)c1cc2ccccc2o1`, the activation of IL-2 secretion is reported as inactive: -4.46%. For `Cc1cc(C)cc(N(C(=O)c2ccccc2)C2CCN(C(=O)OC(C)(C)C)CC2)c1`, the activation of IL-2 secretion was inactive: 3.08%. In the case of `O=C(NCC1(N2CCCCC2)CCCCC1)c1ccc(Cl)nc1`, the activation of IL-2 secretion is reported as inactive: 3.24%. With `CCOC(=O)N1CCC(Nc2ccc(OC)cc2)CC1` the activation of IL-2 secretion was inactive: -2.42%. With `O=C1C(O)=C([N+](=O)[O-])C(=O)C(O)=C1[N+](=O)[O-]` the activation of IL-2 secretion was inactive: 0.731%. With `COc1ccc(Cl)cc1C(=O)NCC1(N2CCOCC2)CCCCC1` the activation of IL-2 secretion was inactive: 7.53%. In the case of `O=C(OC1CN2CCC1CC2)C1c2ccccc2Oc2ccccc21` (stereo not drawn), the activation of IL-2 secretion is reported as inactive: -4.69%. For `N#CC1(Nc2ccccc2)CCN(Cc2ccccc2)CC1`, the activation of IL-2 secretion was inactive: 2.15%. For `O=C(NCC1(N2CCCCC2)CCCCC1)c1ccc(Cl)s1`, the activation of IL-2 secretion was inactive: -0.289%. In the case of `O=C(NCC1(N2CCCCC2)CCCCC1)c1cccs1`, the activation of IL-2 secretion is reported as inactive: 2.11%. With `O=C(NCC1(N2CCCCC2)CCCCC1)c1ccc(=O)[nH]c1` the activation of IL-2 secretion was inactive: -4.94%. In the case of `CC(C)(C)OC(=O)N1CCC(N(C(=O)c2ccccc2)c2ccc(F)cc2)CC1`, the activation of IL-2 secretion is reported as inactive: -0.562%. With `COc1ccc(C(=O)NCC2(N3CCCCC3)CCCCC2)c(OC)c1OC` the activation of IL-2 secretion was inactive: 3.2%. With `COc1ccc(C(=O)NCC2(N3CCCCC3)CCCCC2)cc1` the activation of IL-2 secretion was inactive: 5.65%. For `Cc1cccc(NC2(C#N)CCN(Cc3ccccc3)CC2)c1`, the activation of IL-2 secretion was inactive: -1.61%. In the case of `CSc1ccccc1C(=O)NCC1(N2CCCCC2)CCCCC1`, the activation of IL-2 secretion is reported as inactive: -3.77%. In the case of `COc1cc(C(=O)NCC2(N(C)C)CCCCC2)ccc1OC(F)F`, the activation of IL-2 secretion is reported as inactive: -0.263%. In the case of `CCOC(=O)N1CCC(Nc2cccc(C)c2)CC1`, the activation of IL-2 secretion is reported as inactive: 5.2%. For `CCOc1ccc(C)cc1CN(CCCl)CCCl`, the activation of IL-2 secretion was inactive: 2.11%. For `O=C1CCN(Cc2ccccc2)CC1`, the activation of IL-2 secretion was inactive: 1.97%. In the case of `CCOC(=O)N1CCC(Nc2ccc(F)cc2)CC1`, the activation of IL-2 secretion is reported as inactive: -1.79%. In the case of `COc1ccc(NC2CCN(CCc3ccccc3)CC2)c(OC)c1`, the activation of IL-2 secretion is reported as inactive: 7.38%. In the case of `O=C(NCC1(N2CCCCC2)CCCCC1)c1ccc(F)cc1`, the activation of IL-2 secretion is reported as inactive: -6.8%. For `CCCCOc1ccc(C(=O)NCC2(N3CCOCC3)CCCCC2)cc1`, the activation of IL-2 secretion was inactive: -6.37%. In the case of `O=P1(N(CCCl)CCCl)SCCCS1`, the activation of IL-2 secretion is reported as inactive: -3.67%.
